Columns and labels:
[1] = biological target: T1, Proteasome Macropain subunit MB1 (Homo sapiens, UniProt P28074); test: Inhibition of 20S proteasome beta5 subunit in human erythrocytes using Ac-WLA-AMC as substrate by fluorescence assay; type: cell-based
[2] = biological target: T1, Proteasome Macropain subunit MB1; test: Inhibition of 26S proteasome beta5 subunit in human Calu6 cells using Suc-LLVY-aminoluciferin as substrate after 1hr by luminescence assay; type: cell-based, Calu-6

By UniProt entry, the sequences of proteins in these tests, tags left out. Where a name states a change or a piece, a line headed by the entry shows the natural chain unless it says otherwise.
UniProt P28074: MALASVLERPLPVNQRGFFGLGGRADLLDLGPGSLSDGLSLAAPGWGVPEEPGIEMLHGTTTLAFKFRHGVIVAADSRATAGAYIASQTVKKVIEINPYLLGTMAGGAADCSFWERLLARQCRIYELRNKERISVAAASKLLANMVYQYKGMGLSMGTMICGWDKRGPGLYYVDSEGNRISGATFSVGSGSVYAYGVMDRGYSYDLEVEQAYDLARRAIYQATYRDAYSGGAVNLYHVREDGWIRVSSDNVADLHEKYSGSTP

CC(C)C[C@H](NC(=O)CNC(=O)c1cc(Cl)ccc1Cl)B(O)O [IXAZOMIB]
IC50 [1]: 3 nM | IC50 [2]: 9 nM

Reference: ChEMBL document CHEMBL3217672, “Optimization of a series of dipeptides with a P3 -neopentyl asparagine residue as non-covalent inhibitors of the chymotrypsin-like activity of human 20S proteasome” (Medchemcomm, 2012)
